Reference: ChEMBL document CHEMBL1144449, “Design, synthesis, and evaluation of orally active 4-(2,4-difluoro-5-(methoxycarbamoyl)phenylamino)pyrrolo[2,1-f][1,2,4]triazines as dual vascular endothelial growth factor receptor-2 and fibroblast growth factor receptor-1 inhibitors” (J Med Chem, 2005)

The chains behind the UniProt entries cited, without tags or fusion partners. Residues count along the entry.
UniProt P08069, 741-1367 limits assumed: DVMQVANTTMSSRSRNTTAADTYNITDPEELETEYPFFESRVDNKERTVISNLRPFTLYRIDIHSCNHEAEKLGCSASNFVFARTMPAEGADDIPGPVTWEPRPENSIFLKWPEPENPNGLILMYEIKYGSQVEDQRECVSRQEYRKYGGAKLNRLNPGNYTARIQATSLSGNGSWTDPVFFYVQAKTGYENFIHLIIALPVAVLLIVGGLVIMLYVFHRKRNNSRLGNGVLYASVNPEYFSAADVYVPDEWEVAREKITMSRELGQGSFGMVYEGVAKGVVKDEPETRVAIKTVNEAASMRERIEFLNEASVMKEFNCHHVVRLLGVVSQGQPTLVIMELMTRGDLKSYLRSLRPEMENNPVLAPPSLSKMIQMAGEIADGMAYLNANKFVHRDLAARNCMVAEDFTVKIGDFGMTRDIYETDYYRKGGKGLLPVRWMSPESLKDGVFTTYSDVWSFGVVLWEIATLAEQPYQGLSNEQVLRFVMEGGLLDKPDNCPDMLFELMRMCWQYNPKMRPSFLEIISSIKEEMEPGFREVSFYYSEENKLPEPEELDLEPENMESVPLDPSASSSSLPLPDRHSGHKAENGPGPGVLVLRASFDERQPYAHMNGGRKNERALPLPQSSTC
UniProt P08069, 31-736 limits assumed: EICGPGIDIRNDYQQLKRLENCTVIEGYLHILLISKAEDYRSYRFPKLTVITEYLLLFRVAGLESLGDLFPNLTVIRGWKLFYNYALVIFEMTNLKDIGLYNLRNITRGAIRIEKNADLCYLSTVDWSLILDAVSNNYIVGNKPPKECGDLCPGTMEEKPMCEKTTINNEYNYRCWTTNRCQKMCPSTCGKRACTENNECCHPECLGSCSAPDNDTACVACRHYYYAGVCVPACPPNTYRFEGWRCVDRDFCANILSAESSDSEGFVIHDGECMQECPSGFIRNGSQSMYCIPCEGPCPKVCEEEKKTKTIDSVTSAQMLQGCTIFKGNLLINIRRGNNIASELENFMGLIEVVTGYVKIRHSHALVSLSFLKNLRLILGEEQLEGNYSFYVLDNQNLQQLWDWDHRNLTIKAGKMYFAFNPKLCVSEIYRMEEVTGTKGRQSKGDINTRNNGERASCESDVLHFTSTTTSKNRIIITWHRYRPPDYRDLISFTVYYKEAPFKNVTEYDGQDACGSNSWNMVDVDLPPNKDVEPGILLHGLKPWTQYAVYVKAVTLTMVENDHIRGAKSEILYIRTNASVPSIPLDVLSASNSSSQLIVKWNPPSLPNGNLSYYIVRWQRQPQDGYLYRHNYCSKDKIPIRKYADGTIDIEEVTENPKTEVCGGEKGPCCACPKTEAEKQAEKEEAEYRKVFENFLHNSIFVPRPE

Biological target: Insulin-like growth factor 1 receptor (Homo sapiens, UniProt P08069)
Experiment: Inhibition of human insulin-like growth factor I receptor

IC50: > 25 µM
Structure (SMILES): CONC(=O)c1cc(Nc2ncnn3cc(-c4nnc(C(F)(F)S(C)(=O)=O)o4)c(C(C)C)c23)c(F)cc1F
